These results are taken from publication PMC6005897, “Ligand-Induced Variations in Structural and Dynamical Properties Within an Enzyme Superfamily” (Frontiers in Molecular Biosciences, 2018).

The chains behind the UniProt entries cited, without tags or fusion partners. Residues count along the entry.
UniProt P10153, 28-161: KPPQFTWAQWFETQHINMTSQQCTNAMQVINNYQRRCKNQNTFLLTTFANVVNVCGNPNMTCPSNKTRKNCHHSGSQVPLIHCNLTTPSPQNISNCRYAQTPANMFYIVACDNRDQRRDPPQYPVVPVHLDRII

For the test, the target named is T1, human RNase 2 (RN2_Human) (Homo sapiens, UniProt P10153).
T1 construct: made in house; host or cells: Escherichia coli
The test is described as follows: NMR chemical shift titration, ligand binding to human RNase 2. The note with it: 298 K, 15 mM sodium acetate pH 5.0, ± standard deviation of the fit. The text has this: The pH was carefully monitored throughout the experiments and readjusted with Tris-base or acetic acid if necessary. Ligands 3′-UMP (Chemical Impex Intl Inc., Wood Dale, IL, USA) and 5′-AMP (BioBasic Inc., Markham, ON Canada) were purchased commercially and dissolved in the same buffer as the protein. ^1H-^15N sensitivity-enhanced HSQC experiments were acquired at 800 MHz (18.8 T) using spectral widths (points) of 2025 (160) and 8000 Hz (1024) in the ω1 and ω2 dimensions, respectively. Titration experiments were performed for each ligand with enzyme:ligand molar ratios up to 1:12 (1:12), 1:18 (1:18), 1:24 (1:18), 1:30 (1:18) and 1:18 (1:30) for the 3′-UMP- (5′-AMP-) bound states of bovine RNase A and human RNases 2, 3, 4, and 5, respectively.
The equilibrium dissociation constant (Kd) was calculated by plotting weighted average chemical shift differences (Δδobs) as a function of ligand concentration and fitting the data using the following equation: […]
The Kd was estimated by simultaneously fitting the data of all residues affected by ligand binding (Williamson, [2013]). We note that Δδmax is a fitted parameter and not an experimentally measured one. […] Chemical shift perturbations (Δδobs) were calculated as the difference in the weighted average chemical shift of the ligand-bound (5′-AMP and 3′-UMP) and apo states, as shown below. […]

What is called Kd is the constant that tells how readily two partners part at equilibrium. Take dATATA: the Kd amounted to 384 ± 33.3 µM.
